This is an account of results in patent publication US9161951B2, “Parenteral nutrition composition containing iron” (priority 2005, dated 2015).

For data set [1] the following is noted: cited from earlier work.
The conditions of data set [2]: 30-hour period of testing, 25±2° C.

As to iron dextran, the “effect of iron compound added to lipid-containing TPN/PN admixture” value in data set [1] (TPN formulation containing lipid) was “caused breakdown of the admixture, coalescence of lipid droplets, and cracking and creaming of the lipid component”. In data set [1] (amino acid-dextrose parenteral admixtures (no lipid)), the “compatibility with amino acid-dextrose parenteral admixtures” value is recorded as “compatibility”.
Consider “soluble ferric pyrophosphate [soluble FePPi]”, for which the “stability of nutritional emulsions / emulsion integrity (creaming, phase-separation, visible fat globule formation)” value in data set [2] is on record as “did not significantly alter the stability of nutritional emulsions or disrupt their integrity”.
